Binding of CDR-mutated scFvs to a peptide of the spike HR2 region

The target is the same throughout: PDVDLGDISGINAS, from the HR2 region of SARS-CoV-2 spike.

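Phage display of a naive human antibody library on the peptide gave the parent. Designed CDR sequences, proposed from the first random library and measured here. Their group label is 14L_En_Gen (En: ensemble of fine-tuned language models; Gen: genetic algorithm). In AlphaSeq, yeast of one mating type display the scFv and yeast of the other type display the target. Pairs that bind mate more often; barcode pairs of the diploids are counted by sequencing. A regression on co-assayed BCL2-family reference pairs converts the normalised counts of each replicate to an apparent Kd. Mating was done six times.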

Each scFv is VH, a (GGGGS)3 linker, VL, as in the parent Ab-14, and differs from it in the CDRs of the light chain only.
VH: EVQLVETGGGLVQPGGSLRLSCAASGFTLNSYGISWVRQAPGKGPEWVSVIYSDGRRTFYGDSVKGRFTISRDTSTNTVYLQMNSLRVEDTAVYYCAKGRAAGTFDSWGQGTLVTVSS
VL: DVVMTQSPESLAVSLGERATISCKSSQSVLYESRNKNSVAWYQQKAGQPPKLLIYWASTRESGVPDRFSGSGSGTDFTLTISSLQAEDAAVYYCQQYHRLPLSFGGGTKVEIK

Each variant is given by its three light chain CDRs, as the data file delimits them; those of the parent are KSSQSVLYESRNKNSVA, WASTRES, QQYHRLPLS.
The read-out is the apparent dissociation constant on a log10 scale (nM): the lower, the stronger.
Averages over replicates are reported, and they cover detected replicates only.
Where no diploid with the target was found in that replicate, the entry reads "nd": below detection, most likely a poor binder, though not proof of it.
Values of this round are not directly comparable with the first-round values of the same sequences.
The parent sequence was in this pool as ten entries: three were never detected, three once, and four in most replicates, with averages from 0.34 to 2.37.
The authors averaged sequences with at least three values out of six and counted those with two or fewer as poor binders.
Three control strains display no target. For all light chain designs, 4% of the pairings with them gave a signal, with a median of 2.64 and one signal in twenty below 1.59, so weak values seen in few replicates may be background. The control count says in how many pairings with the empty strains this scFv gave a signal, with their mean in brackets.

| CDR-L1 | CDR-L2 | CDR-L3 | log10 Kd, replicates | mean log10 Kd (nM) | empty controls |
|---|---|---|---|---|---|
| TISNVMNTLTRHGNNVA | DLQEREE | QQYFRLPLS | 1.02 1.13 0.73 0.88 1.21 1.11 | 1.01 | 1 of 18 (3.60) |
| QIGMLMNFELQKINNVA | QMETRVN | QQYDRLPLS | 0.52 0.08 0.01 0.81 0.14 0.04 | 0.27 | 0 of 18 |
| MISQLMNMGQFAINSVA | QASIRNE | QQYDRLPLI | -0.02 -0.01 0.23 -0.21 0.44 0.05 | 0.08 | 2 of 18 (3.28) |
| QIYQAMHTLMQAKDNVA | DVNERGD | QQYYRLPLS | 0.38 0.26 0.13 0.15 0.23 0.47 | 0.27 | 0 of 18 |
| IVSQLMLVGMHAKNSIA | EASTRNN | QQYERLPLF | 1.45 1.71 1.45 1.01 1.06 1.31 | 1.33 | 1 of 18 (2.32) |
| KLSGLMQSSKFAKNNVA | ENNTREK | QQYDRLPLS | nd nd 2.37 3.22 2.78 2.74 | 2.78 | 1 of 18 (2.53) |
| MISQVMNTLTREGNNVA | DLQERER | QQYFRLPLS | 1.65 1.83 2.30 3.53 2.29 1.68 | 2.21 | 0 of 18 |
| KIGATLNQLMHQKNNVA | DLVMRES | QQYHRLPLS | 1.27 1.61 0.37 0.73 1.25 1.96 | 1.20 | 1 of 18 (3.73) |
| MIHEMMGLVSHKQSSIA | DNSTREE | QQYDRLPLS | nd 2.48 nd nd nd nd | 2.48 | 0 of 18 |
| KFSQMSNMFSVSMNAVA | EMSTRED | QQYNRLPLA | 0.80 0.72 0.80 1.13 0.87 1.52 | 0.97 | 1 of 18 (3.61) |
| MISQLINMGQFAINSVA | QAETRCN | QQYDRLPLV | 1.48 0.73 0.56 1.34 0.30 1.16 | 0.93 | 1 of 18 (2.02) |
| TISQLMNMGQFAINSVA | QAEMRNA | QQYDRLPLI | 0.85 1.01 0.14 0.81 0.54 1.10 | 0.74 | 0 of 18 |
| TIGSTLMYGSRNRSNVA | EVSERLN | QQYDRLPLF | 1.51 0.91 1.14 1.24 1.36 1.30 | 1.24 | 2 of 18 (2.52) |
| MISQLYNMGQFAINSVA | QGSTRNQ | QQYDRLPLM | nd nd nd 1.75 1.39 1.87 | 1.67 | 0 of 18 |
| QIYQAMHTLSQMKDNVA | DVSERGS | QQYFRLPLS | 0.63 0.56 0.32 0.23 0.32 0.61 | 0.44 | 1 of 18 (1.97) |
| QISMLLNFESYKVNNVA | QMETRVN | QQYDRLPLS | 0.47 0.61 0.13 0.52 0.28 0.71 | 0.45 | 1 of 18 (1.98) |
| TLSYASLLESVKRNNVA | ENSTREQ | QQYDRLPLA | nd nd nd nd nd nd | nd | 0 of 18 |
| MMSQVTGQGTRHRNNVA | QTETREP | QQYDRLPLM | 0.80 -0.25 0.56 0.46 2.25 1.11 | 0.82 | 0 of 18 |
| KISMLINQTFEESNNVA | EMATREK | QQYNRLPLS | nd nd nd nd 2.92 nd | 2.92 | 0 of 18 |
| KVSEFMRGLMMRKDSIA | DNNTRQN | QQYDRLPLS | 2.67 2.28 nd 2.33 2.95 1.52 | 2.35 | 0 of 18 |
| TIGQTLMQGIRNRSNVA | EVSQRLN | QQYDRLPLE | 2.37 1.57 1.42 1.54 1.62 1.59 | 1.69 | 2 of 18 (2.21) |
| TLYGLSVSMSKNVNNVA | EMTTREK | QQYDRLPLI | 0.82 0.31 0.46 1.01 0.26 1.38 | 0.71 | 0 of 18 |
| TLYGLTNSMSKNKDSVA | EMSTREA | QQYDRLPLI | 2.73 2.99 1.36 1.25 1.26 2.44 | 2.01 | 2 of 18 (2.68) |
| MISQLMNAGQFAINSVA | QASIRNS | QQYDRLPLM | 0.61 2.78 0.85 1.61 1.12 1.01 | 1.33 | 1 of 18 (1.87) |
| MVNGIMDHLSKQTNNVA | ETVTREE | QQYDRLPLT | 0.54 0.23 0.56 0.44 0.45 0.78 | 0.50 | 0 of 18 |
| IVSQLMLWGWHAKNSIA | EAQMRLN | QQYDRLPLM | nd nd nd nd nd nd | nd | 0 of 18 |
| KLYEMSASTMSNIRNVA | DNSTREQ | QQYNRLPLS | 2.43 1.18 1.35 1.91 2.22 1.71 | 1.80 | 2 of 18 (2.31) |
| TISQMSTLFSQSINNVA | EVSTRLN | QQYDRLPLA | 2.08 1.08 1.81 1.19 1.54 1.47 | 1.53 | 0 of 18 |
| HMSMLTLQGMRHMNSVA | QMTTRVN | QQYDRLPLT | 1.15 0.73 1.01 0.80 1.38 0.92 | 1.00 | 2 of 18 (2.29) |
| KIGMTLNTLMHQKNNVA | DLVQREN | QQYFRLPLS | 0.67 1.47 0.91 0.85 1.14 1.10 | 1.02 | 0 of 18 |
| HMSMLTLQGMRHRNSVA | QMTTRVN | QQYDRLPLA | 0.44 1.04 0.22 0.37 0.68 0.83 | 0.60 | 2 of 18 (3.07) |
| MLSQMTGWGMKASNSVA | QASTRFE | QQYHRLPLI | 1.58 1.71 1.25 1.86 1.99 1.74 | 1.69 | 0 of 18 |
| HMSAVTMMGSRHRNSVA | QMTTREN | QQYDRLPLA | nd 1.99 nd nd nd nd | 1.99 | 0 of 18 |
| KISMLLNMTFQQSNNVA | EMATREK | QQYNRLPLS | 1.04 0.66 0.86 0.39 1.19 0.51 | 0.77 | 0 of 18 |
| MVYQATMMGTSTRNSIA | NAQMRPD | QQYHRLPLI | 0.87 1.15 0.75 1.21 0.78 0.90 | 0.94 | 1 of 18 (2.12) |
| QISGITGHMSTIKNNVA | EMVTRAN | QQYERLPLS | 0.90 0.34 0.79 0.48 0.55 0.95 | 0.67 | 1 of 18 (3.09) |
| IVSQLMLWGMHAKNSIA | EAAMRLN | QQYDRLPLF | nd nd nd nd nd nd | nd | 0 of 18 |
| TIGGTLMYGMRNRSNVA | EVSQRLN | QQYDRLPLI | 2.40 1.43 1.33 2.00 1.71 2.16 | 1.84 | 2 of 18 (3.08) |
| MISQLYNMGQFAINSVA | QASYRNE | QQYDRLPLM | 0.90 0.66 -0.09 1.03 1.04 1.38 | 0.82 | 0 of 18 |
| TIGGTLMMGYKQRSNVA | EVSQRLN | QQYDRLPLV | 0.91 0.98 0.81 0.86 0.75 0.85 | 0.86 | 2 of 18 (2.84) |
| KVMYFNEQVSLKGSNVA | DNETREQ | QQYFRLPLS | 0.43 0.30 0.12 0.10 0.24 0.36 | 0.26 | 3 of 18 (2.47) |
| MISQLYNMGQFAINSVA | QASVRNA | QQYDRLPLM | 1.88 1.72 1.09 1.24 1.60 1.38 | 1.48 | 0 of 18 |
| TLGLNTLVESIKKNNVA | EMSTRMN | QQYVRLPLA | 1.59 1.18 1.31 1.19 1.19 1.05 | 1.25 | 1 of 18 (2.90) |
| HMSMLTLQGMRQKNSVA | QMTTREN | QQYDHLPLA | 1.02 1.27 0.93 1.97 1.54 1.21 | 1.32 | 0 of 18 |
| KISQMARVGQTHGNSIA | EEATRAK | QQYHRLPLS | 0.60 0.61 0.62 0.59 0.89 0.92 | 0.70 | 0 of 18 |
| QIYQAMHTLMQVKNNIA | DVTNRNQ | QQYHRLPLS | 0.85 0.86 0.72 1.25 0.75 0.62 | 0.84 | 0 of 18 |

The 6 strongest on average among those seen in every replicate, once more:

| CDR-L1 | CDR-L2 | CDR-L3 | log10 Kd, replicates | mean log10 Kd (nM) | empty controls |
|---|---|---|---|---|---|
| MISQLMNMGQFAINSVA | QASIRNE | QQYDRLPLI | -0.02 -0.01 0.23 -0.21 0.44 0.05 | 0.08 | 2 of 18 (3.28) |
| KVMYFNEQVSLKGSNVA | DNETREQ | QQYFRLPLS | 0.43 0.30 0.12 0.10 0.24 0.36 | 0.26 | 3 of 18 (2.47) |
| QIGMLMNFELQKINNVA | QMETRVN | QQYDRLPLS | 0.52 0.08 0.01 0.81 0.14 0.04 | 0.27 | 0 of 18 |
| QIYQAMHTLMQAKDNVA | DVNERGD | QQYYRLPLS | 0.38 0.26 0.13 0.15 0.23 0.47 | 0.27 | 0 of 18 |
| QIYQAMHTLSQMKDNVA | DVSERGS | QQYFRLPLS | 0.63 0.56 0.32 0.23 0.32 0.61 | 0.44 | 1 of 18 (1.97) |
| QISMLLNFESYKVNNVA | QMETRVN | QQYDRLPLS | 0.47 0.61 0.13 0.52 0.28 0.71 | 0.45 | 1 of 18 (1.98) |

From the AlphaSeq antibody data of Li et al. 2023 (doi:10.1038/s41467-023-39022-2), copy in the FLAb collection.